Molecular target: T1, thrombin (Homo sapiens, UniProt P00734)
T1 construct: purchased Anaspec Inc
Test: Thrombin activity assay (SensoLyte 520 kit, FRET)
Assay type: biochemical
Conditions: thrombin 300 ng/mL, 5-FAM/QXL 520 substrate 300 nmol/L, 2 hours at room temperature; read-out: IC50 value of the thrombin activity inhibition
Description: The action of the cyclohexane derivative (I) or the pharmaceutically acceptable salt thereof on the thrombin activity was evaluated using a SensoLyte (registered trademark) 520 thrombin activity assay kit manufactured by Anaspec Inc., which utilizes fluorescence resonance energy transfer (FRET).
The test compound was dissolved in dimethylsulfoxide (hereinafter referred to as DMSO), and diluted with the assay buffer included in the kit to a final DMSO concentration of 0.5 to 1%. […] Thereafter, the fluorescence value was measured by excitation at 485 nm and detection at 520 nm. […]
The thrombin activity inhibition rate (%) was calculated according to Equation 1, and regression analysis was carried out to obtain a sigmoid curve (variable slope), thereby calculating the IC50 value of the thrombin activity inhibition by the test compound: Thrombin activity inhibition rate (%)=(1−((fluorescence value in the presence of both thrombin and the test compound)−(fluorescence value in the absence of both thrombin and the test compound))/((fluorescence value in the presence of thrombin and absence of the test compound)−(fluorescence value in the absence of both thrombin and the test compound)))×100 Equation 1. […]

CC1CNc2c(cccc2S(=O)(=O)N[C@@H](CCCNC(=N)N)C(=O)N2CC[C@@H](C)C[C@@H]2C(=O)O)C1 (stereo partly shown) [Argatroban, reference compound]
IC50: 3 nM

— patent publication US10130608B2, “Methods of treating or preventing multiple sclerosis” (Toray Industries, Inc., priority 2014, dated 2018)
